In this assay the test system is Notch signaling in SNC cells (rat NotchΔE, CBF-Luciferase). The experiment in a line: SNC dual cell assay, Notch signaling luciferase reporter. Particulars: ratio of cellular Notch signaling and Aβ EC50. A general note: Reporter assays use an easily measured gene product as a stand-in for the process of interest.

`CC(C)C[C@H](NC(=O)[C@H](Cc1ccccc1)C[C@@H](O)[C@H](Cc1ccccc1)NC(=O)OC(C)(C)C)C(=O)N[C@@H](Cc1ccccc1)C(N)=O` [L-685,458, tert-Butyl (2S,3R,5R)-6-((S)-1-((S)-1-amino-1-oxo-3-phenylpropan-2-ylamino)-4-methyl-1-oxopentan-2-ylamino)-5-benzyl-3-hydroxy-6-oxo-1-phenylhexan-2-ylcarbamate]: the “Cellular Selectivity (APP/Notch)” value was found to be 14.

The values above are taken from publication PMC3031881, “Amyloid precursor protein selective gamma-secretase inhibitors for treatment of Alzheimer's disease” (Alzheimer's Research & Therapy, 2010).
